# pKi: −log10 of the molar value.
# Protein sequences, listed by entry. Tags and fused reporters are not part of them. Lines headed by an entry give the natural chain unless they say otherwise; changes in a name come on top.
# UniProt P41145: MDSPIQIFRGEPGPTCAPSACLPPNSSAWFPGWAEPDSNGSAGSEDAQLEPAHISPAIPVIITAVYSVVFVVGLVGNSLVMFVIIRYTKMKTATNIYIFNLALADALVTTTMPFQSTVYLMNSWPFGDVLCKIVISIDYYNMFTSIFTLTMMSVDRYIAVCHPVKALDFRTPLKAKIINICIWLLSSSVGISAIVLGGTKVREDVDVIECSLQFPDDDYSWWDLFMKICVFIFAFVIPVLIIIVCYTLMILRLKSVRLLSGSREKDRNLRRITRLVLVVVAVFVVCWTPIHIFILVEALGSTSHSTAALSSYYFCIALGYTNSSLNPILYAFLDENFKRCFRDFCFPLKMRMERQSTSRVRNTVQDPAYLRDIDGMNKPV
# Biological target: Kappa-type opioid receptor (Homo sapiens, UniProt P41145)
# Test: In vitro binding affinity for human kappa opioid receptor was determined by using [3H]diprenorphine as radioligand
smiles,measurement,value
CN(C(=O)Cc1ccc(Cl)c(Cl)c1)[C@H](CN1CCCC1)c1ccccc1,pKi,10.37
